From US20160272620A1 (priority 2013, published 2016)

Target: tabun-hAChE (Homo sapiens, UniProt P22303)
Assay: In vitro reactivation of tabun-hAChE
Details: kr2 = kr/KD

Work on `O/N=C/c1nc(CCCCCNc2c3c(nc4ccccc24)CCCC3)ccc1O` [Compound 11, 2-[(1E)-(hydroxyimino)methyl]-6-{5-[(1,2,3,4-tetrahydroacridin-9-yl)amino]pentyl}pyridin-3-ol] yielded a kr2 of 1 ± 0.12 M⁻¹ s⁻¹.
